The structures appear in SMILES notation. The list shows a part of the results, in another mix than the full data. Records with an inconclusive call do not appear. Some structures show a salt or complex split into parts, the way the source records it. Calls of active or inactive are those of the source.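 How the source made its calls: active means more than half of the replicate wells show a fall in the fluorescence ratio signal beyond about 16% (limit read from the data, passing the limit was not always enough); inconclusive means exactly half of the replicate wells pass the set limit; inactive means fewer than half of replicates pass the limit.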

This experiment relates to Ran GTPase (GTP-bound) - importin-beta complex. The experiment can be described thus: disruptors of Ran-importin-beta complex formation – biochemical, FRET, CFP-Ran, YFP-importin-beta, homogeneous, primary screen (AID 2216).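 Further: 0% = DMSO wells and 100% = Ran loaded with GDP instead of GTP.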 The note with it: cell-free CFP-Ran/YFP-importin-beta FRET ratio; active compounds read high; concentration not given here.
Take `CN(C)C(=O)OCCc1n(C)cc[n+]1C`: the inhibition (in general, the drop in the measured response relative to a control, in per cent) is inactive: 2.12%.
Consider `CC(C)=N/N=C(\N)N[N+](=O)[O-]`, for which the inhibition is inactive: 1.02%.
Take `CN(C)C(=O)c1c([N+](=O)[O-])cc([N+](=O)[O-])cc1[N+](=O)[O-]`: the inhibition is inactive: -5.97%.
Next, `CC1CCN(C(=O)Oc2c(Cl)cc(Cl)c3cccnc23)CC1`: inactive: 9.03%.
In the case of `C[N+]1=C2C=CC=CC=C2SC12C([N+](=O)[O-])=CC([N+](=O)[O-])=C[C-]2[N+](=O)[O-]` (configuration not stated), the inhibition is inactive: -3.73%.
Take `COc1ccccc1OP(C)(=O)Nc1ccccc1Br` (configuration not stated): the inhibition is inactive: 6%.
The result for `Nc1ccc([As](=O)(O)c2ccc(N)cc2)cc1` reads inactive: 4.85%.
In the case of `CC(C)(C)c1ccc(OP(C)(=O)O)cc1`, the inhibition was inactive: -1.58%.
Consider `CP(=O)(Nc1ccc(Cl)cc1)Oc1ccc(F)cc1` (configuration not stated), for which the inhibition is inactive: 5.22%.
Turning to `CCN(/C(=N/P(=O)(N1CCOCC1)N1CCOCC1)N1CCOCC1)c1ccc(OC)cc1`, the inhibition is inactive: -0.861%.
As to `O=C(OCCCN1CCCC1)C(O)(c1ccccc1)C1CCCCC1` (configuration not stated), the inhibition was inactive: 1.21%.
Regarding `CC(=O)N1C2C3N(C(C)=O)C1C1N(C(C)=O)C(C(N1C(C)=O)N3C(C)=O)N2C(C)=O`, the inhibition is inactive: 0.774%.
Next, `O=[N+]([O-])c1cccc2n[nH]nc12`: inactive: -1.18%.
The result for `COc1ccccc1OP(C)(=O)Nc1c(C)n(C)n(-c2ccccc2)c1=O` (configuration not stated) reads inactive: -4.88%; that for `CCc1ccc(OP(C)(=O)Nc2cccnc2)cc1` (configuration not stated), inactive: -1.47%; that for `O=[N+]([O-])c1cc([N+](=O)[O-])c(CCNc2ccccc2)c([N+](=O)[O-])c1`, inactive: 4.31%.
The result for `CP(=O)(Oc1ccccc1)N1CCOC1=O` (configuration not stated) reads inactive: 0.436%; that for `Cc1ccc(NP(=O)(Oc2ccccc2)Oc2ccccc2)nc1`, inactive: -3.67%.
As to `COc1ccc(OP(C)(=O)Nc2ccc(Br)cc2)cc1` (configuration not stated), the inhibition was inactive: -1.51%.
The result for `COc1ccc(C2=NCC(CBr)S2)cc1` (configuration not stated) reads inactive: -0.463%; that for `CCN(CC)CC(O)COC(=O)C(O)(c1ccccc1)C1CCCCC1` (configuration not stated), inactive: 4.06%; that for `O=[N+]([O-])c1cccc(NC2=NCC(CBr)S2)c1` (configuration not stated), inactive: -0.524%.
Regarding `O=C(O)CNc1ccc([As](=O)(O)O)cc1`, the inhibition is inactive: -0.0207%.
Next, `CC(C)(C)C(=O)NC(Sc1ccncn1)C(Cl)(Cl)Cl` (configuration not stated): inactive: -1.79%.
Next, `O=[N+]([O-])c1ncn(CCn2ncnc2[N+](=O)[O-])n1`: inactive: -1.72%; `O=C(Nc1cc([As](=O)(O)O)ccc1O)c1ccccc1`: inactive: 1.6%.
`CCOC(=O)c1ccc(NP(C)(=O)Oc2ccc(Cl)cc2)cc1` (configuration not stated): the inhibition is inactive: -1.87%.
In the case of `Nc1ccc2c(ccc3cccnc32)n1.O=[N+]([O-])c1cc([N+](=O)[O-])c(O)c([N+](=O)[O-])c1`, the inhibition was inactive: 0.728%.
As for `CCN(N=Nc1nonc1N)c1nonc1N`, the inhibition is inactive: 1.57%.
Next, `CP(=O)(Nc1ccc(Cl)cc1Cl)Oc1ccccc1` (configuration not stated): inactive: 4.04%; `CP(=O)(OCCOc1ccccc1)OCCOc1ccccc1`: inactive: 1.94%.
Take `Nc1cccc2ccc([As](=O)(O)O)cc12`: the inhibition was inactive: -0.419%.
Turning to `Cc1nc2ccc3ccccc3c2o1.O=[N+]([O-])c1cc([N+](=O)[O-])c(O)c([N+](=O)[O-])c1`, the inhibition is inactive: 1.22%.
Consider `O=[N+]([O-])c1cc([N+](=O)[O-])c(CCN2CCOCC2)c([N+](=O)[O-])c1`, for which the inhibition is inactive: -2.33%.
The result for `COc1ccccc1OP(C)(=O)Nc1ccc(C)c(C)c1` (configuration not stated) reads inactive: 2.36%; that for `CN(C(=O)Cc1ccc(Cl)c(Cl)c1)[C@H]1CCCC[C@@H]1N1CCCC1`, inactive: -2.7%.
The result for `Cc1ccc(NP(=O)(Oc2ccccc2F)Oc2ccccc2F)nc1` reads inactive: 4.1%; that for `Cc1cc(SC(NC(=O)c2ccc(F)cc2)C(Cl)(Cl)Cl)ncn1` (configuration not stated), inactive: 2.28%; that for `CCOP(=O)(Nc1ccccc1)OCC`, inactive: 2.53%.
Regarding `COc1ccc(OP(C)(=O)Nc2ccccc2Br)cc1` (configuration not stated), the inhibition was inactive: 1.84%.
As for `CC(=O)Nc1ccc([As](=O)(O)O)cc1`, the inhibition is inactive: -4.17%.
With `O=C(O)c1ccccc1[As](=O)(O)O`, the inhibition was inactive: -3.84%.
The result for `O=P(Nc1nc2ccc(Cl)cc2s1)(c1ccccc1)c1ccccc1` reads inactive: -0.739%; that for `Cc1cc(C)cc(OP(C)(=O)Nc2cccc(C(F)(F)F)c2)c1` (configuration not stated), inactive: 2.31%.
`COc1ccccc1OP(C)(=O)Nc1ccc(C)cc1C` (configuration not stated): the inhibition is inactive: -4.33%.
Consider `CP(=O)(Nc1ccccn1)Oc1ccccc1` (configuration not stated), for which the inhibition is inactive: -5.56%.
Turning to `CCc1ccc(OP(C)(=O)O)cc1`, the inhibition is inactive: 0.51%.
For `Nc1cc(N)c2nonc2c1[N+](=O)[O-]`, the inhibition is inactive: 4.88%.
Take `Cc1c(NP(C)(=O)Oc2ccc(C(C)C)cc2)c(=O)n(-c2ccccc2)n1C` (configuration not stated): the inhibition is inactive: 12.9%.
With `O=[N+]([O-])c1cc([N+](=O)[O-])c(Nc2ccccn2)c([N+](=O)[O-])c1`, the inhibition is inactive: 2.47%.
For the molecule `CC(C)CC(=O)NC(Sc1ccc(Cl)cc1)C(Cl)(Cl)Cl` (configuration not stated), the inhibition was inactive: 1.53%.
The result for `O=C(NC(Sc1ccncn1)C(Cl)(Cl)Cl)c1ccccc1` (configuration not stated) reads inactive: 0.245%; that for `Cc1c2non([O-])c-2c(C)[n+](=O)[n+]1[O-]`, inactive: -0.617%.
The result for `Oc1ccccc1CNc1ccccn1` reads inactive: 1.78%; that for `Cc1ccc(OP(=O)(Nc2nccs2)Oc2ccc(C)cc2)cc1`, inactive: 1.38%; that for `COc1ccc(OP(C)(=O)Nc2ccccn2)cc1` (configuration not stated), inactive: 0.757%.
For the molecule `CN1CCCC(OC(=O)C(c2ccccc2)c2ccccc2)C1` (configuration not stated), the inhibition is inactive: 2.39%.
The result for `Clc1ccc(Cl)c(NC2=NCC(CBr)S2)c1` (configuration not stated) reads inactive: 3.59%; that for `NC(=O)c1cc([N+](=O)[O-])cc([N+](=O)[O-])c1N`, inactive: -1.15%.
The result for `Cc1ccc(N/C(=N/P(=O)(N2CCOCC2)N2CCOCC2)N2CCOCC2)cc1` reads inactive: 0.985%; that for `COc1ccccc1OP(C)(=O)Nc1ccc(Br)cc1` (configuration not stated), inactive: -1.72%.
Next, `CC(=O)Nc1ccc(Oc2c([N+](=O)[O-])cc([N+](=O)[O-])cc2[N+](=O)[O-])cc1`: inactive: -0.00695%; `CC(=O)Nc1ccc([As](=O)(O)O)c(O)c1`: inactive: -1.49%.
For the molecule `COc1ccc2c(c1O)-c1c(O)c(OC)cc3c1[C@H](C2)[N+](C)(C)CC3.O=[N+]([O-])c1cc([N+](=O)[O-])c([O-])c([N+](=O)[O-])c1[O-]`, the inhibition is inactive: -0.738%.
As for `O=C(OC1CN2CCC1CC2)c1ccc([N+](=O)[O-])cc1` (configuration not stated), the inhibition was inactive: -0.091%.
Next, `CC(=O)c1ccc(N2CC2c2ccncc2)cc1` (configuration not stated): inactive: -2.44%; `C[C@H]1OP(=O)(Oc2ccccc2)C[C@@H]2O[C@@H]21` (some centres not stated): inactive: -1.79%.
On to `C[C@@H]1C=CCP(=O)(Oc2ccccc2)O1` (some centres not stated), for which the inhibition is inactive: -4.64%.
The result for `O=C(OCCN1CCN(CCOCc2ccccc2)CC1)C(O)(c1ccccc1)c1ccccc1` reads inactive: 2.17%; that for `CP(=O)(Nc1ccccc1F)Oc1ccccc1` (configuration not stated), inactive: 1.25%; that for `CC(C)c1ccc(OP(C)(=O)Nc2ccc(SC(F)(F)F)cc2)cc1` (configuration not stated), inactive: -0.453%.
Next, `CC(C)(C)C(=O)NC(Sc1ccccc1)C(Cl)(Cl)Cl` (configuration not stated): inactive: 1.41%; `CCOc1ccc(C2=NCC(CBr)S2)cc1` (configuration not stated): inactive: 6.41%.
Consider `O=P1(Nc2nc3ccc(Cl)cc3s2)COc2ccccc2O1` (configuration not stated), for which the inhibition is inactive: 1.16%.
The result for `CP(=O)(Nc1ccccc1)Oc1ccc(F)cc1` (configuration not stated) reads inactive: -1.94%.
Next, `CCCCCOc1ccc(NP(C)(=O)Oc2ccc(Cl)cc2Cl)cc1` (configuration not stated): inactive: 5.65%.
Next, `O=[N+]([O-])c1cc([N+](=O)[O-])c(OC2CCCCC2O)c([N+](=O)[O-])c1` (configuration not stated): inactive: -1.04%; `Cc1ccccc1OP(=O)(Nc1ccccn1)Oc1ccccc1C`: inactive: 3.87%.
As for `Cc1ccc(OP(=O)(Nc2ccccn2)Oc2ccc(C)cc2)cc1`, the inhibition was inactive: 1.02%.
Next, `CC(=O)NC(SC(=S)N(CC(C)C)CC(C)C)C(Cl)(Cl)Cl` (configuration not stated): inactive: 0.772%; `COC(=O)c1cc2c(s1)N=C(c1ccccc1)N(C)P2(=O)N1CCOCC1` (configuration not stated): inactive: 4%; `CCC(=O)N1C2C3N(C(=O)CC)C1C1N(C(=O)CC)C(C(N1C(=O)CC)N3C(=O)CC)N2C(=O)CC`: inactive: 3.73%.
The result for `CCN(CC)CCCOC(=O)C(O)(c1ccccc1)C1CCCCC1` (configuration not stated) reads inactive: -3.4%.
Turning to `O=C(OC1CN2CCC1CC2)c1ccccc1` (configuration not stated), the inhibition is inactive: 3.89%.
For the molecule `CCOC(=O)c1ccc(NP(C)(=O)Oc2ccc(F)cc2)cc1` (configuration not stated), the inhibition is inactive: 1.06%.
Next, `COc1ccc(OP(C)(=O)Nc2ccc(SC(F)(F)F)cc2)cc1` (configuration not stated): inactive: -1.26%; `O=C(NC1CCS(=O)(=O)C1)NP(=S)(Oc1ccccc1)Oc1ccccc1` (configuration not stated): inactive: -2.06%.
For the molecule `CCOC(=O)NC(Sc1ccccc1)C(Cl)(Cl)Cl` (configuration not stated), the inhibition was inactive: 0.0659%.
The result for `Cc1ccc(NP(=O)(Oc2cccc(C)c2)Oc2cccc(C)c2)nc1` reads inactive: 1.07%; that for `c1ccc(-c2nn[nH]n2)c(-c2nn[nH]n2)c1`, inactive: 1.89%.
`C(Cc1nn[nH]n1)Cc1nn[nH]n1`: the inhibition is inactive: -2.67%.
Next, `Nc1ccc([As](=O)(O)c2ccc([N+](=O)[O-])cc2)cc1`: inactive: 2.51%.
The result for `O=[N+]([O-])c1ncn(CCn2cnc([N+](=O)[O-])n2)n1` reads inactive: 2.09%; that for `CC(=O)NC(SC(=S)N(C)C)C(Cl)(Cl)Cl` (configuration not stated), inactive: 5.61%.
The result for `O=[N+]([O-])c1ccc(OP2(=O)COCCO2)cc1` (configuration not stated) reads inactive: -2.5%.
On to `O=[N+]([O-])c1ccc(O)c(/C=N/Nc2ccc([N+](=O)[O-])cc2[N+](=O)[O-])c1`, for which the inhibition was inactive: 2.54%.
As to `O=[N+]([O-])c1cc([N+](=O)[O-])c(NCC2CCS(=O)(=O)C2)c([N+](=O)[O-])c1` (configuration not stated), the inhibition was inactive: 1.35%.

These data come from PubChem BioAssay AID2216 (Broad Institute, 2009).
